Test results published in patent US6383734.

Biological target: recombinant His-tagged mouse PAK3 from Sf9 cells (UniProt Q61036)

GST-Rac1 charged with GTPγS
stimulation of the Raf-1 peptide and Raf-CR3 serine 338/339 kinase activity of PAK3: stimulated up to six-fold by co-incubation with GST-Rac-GTPγS or GST-Cdc42-GTPγS
